Our source for the activity change, negative = inhibition values is PubChem BioAssay AID1347428 (National Center for Advancing Translational Sciences (NCATS), 2020).

The chains behind the UniProt entries cited, without tags or fusion partners.
UniProt Q9GZX7, whole entry: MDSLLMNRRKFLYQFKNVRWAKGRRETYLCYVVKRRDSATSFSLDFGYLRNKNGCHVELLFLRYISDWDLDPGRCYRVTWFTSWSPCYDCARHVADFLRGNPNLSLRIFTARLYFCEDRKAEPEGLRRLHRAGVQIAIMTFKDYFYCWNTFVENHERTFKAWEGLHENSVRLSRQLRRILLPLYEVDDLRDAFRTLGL

The structures appear in SMILES notation. Only a part is listed here, and it is no random draw. Some tests of the compounds listed are not included; inactive here does not mean inactive elsewhere. Results filed as inconclusive are left out. Active and inactive are the calls of the source. Calls follow the shape of the dose curve; as a rule, active = well fitted inhibition curve with a large enough effect; inconclusive = small, poorly fitted or top-dose-only effect; inactive = no such curve, though single readings can be large or run the other way.
% is scaled to controls: 0 for no effect and ±100 for the full control effect.

In the assay the target is Single-stranded DNA cytosine deaminase (Homo sapiens) (UniProt Q9GZX7). In words: Primary qHTS assay for inhibitors of Activation Induced Cytidine Deaminase (AID): AID signal. Also: nearly all actives have a fitted effect of over 25% in size. Conditions: AID deamination FRET fluorescence, UDG-coupled, 4 h; at 115 µM (top of the series). An excerpt: Assay Provider (PI) Patricia Gearhart Ph.D.
National Institute on Aging
National Institute of Health (NIH), Bethesda, MD
Assay Provider (PI) Rahul Kohli Ph.D.
Perelman School of Medicine
University of Pennsylvania, Philadelphia, PA
Activation-Induced Deaminase (AID) is a cytosine deaminase which converts cytosine into uracil within stretches of ssDNA. The presence of uracil in DNA initiates a cascade of mutagenic DNA repair to introduce point mutations and DNA double strand breaks. Specific targeting of AID to the immunoglobulin heavy chain loci (Igh) promotes mutagenesis in the antibody variable region for somatic hypermutation (SHM) or switch regions leading to class switch recombination (CSR). However, AID also plays a role in accumulating unnecessary mutations across the genome. Mis-targeting of AID results in the initiation of tumor development and leads to greater drug resistance among cancer cells when continually expressed. To identify an AID inhibitor, a small molecule library will be screened in collaboration with NCATS core facility at NIH. To confirm biological function, inhibitors will be examined in an in vitro murine B-cell activation assay and subsequent secondary validation screens. Top molecules will be further screened to identify inhibitory efficacy against a wild type primary splenocytes assay. Using these approaches, we hope to identify a small molecule with great efficacy and low toxicity for use as a molecular probe to further characterize AID's intricacies, or even as a therapeutic.
A FRET based analysis of cytosine deamination, was developed to identify potential inhibitors of AID catalytic activity. This screen has two signal output, Read 1 evaluates the AID inhibition response. The second readout (Read 2) evaluates UDG response and is uses as a counterscreen to exclude false positive inhibitors. Inhibition in AID and inactivity in the UDG signal is the desired outcome for this assay.
SEQUENCE No. (e.g., 1, 2, 3, etc.); […] (e.g., Cells, Incubation, Reagent, etc.); VALUE; DESCRIPTION
1a; Reagent; 3 uL; [4/3x] 1 uM AID/2.67 U/mL UDG
1b; Reagent; 3 uL; 2 U/mL UDG
1c; Reagent; 3 uL; 1 uM AID
2a; Compound; 46 nL; Follow-up plates (0.64 uM - 10 mM)
2b; Control; 46 nL; ATA ([…] - 10 mM)
3; Time; 10 min; incubation at room temperature
5; Time; 4 hr; incubation at room temperature
6; Reagent; 4 uL; [2x] 250 mM NaOH
7; Time; 15 sec; centrifuge at 1000 rpm
8; Time; 30 min; incubation at room temperature
9a; Detection; fluorescence (Read 1: AID); EnVision (PerkinElmer) plate reader, 540 excitation and 590 emission filters
9b; Detection; fluorescence (Read 2: UDG); EnVision (PerkinElmer) plate reader, 560 excitation and 665 emission filters
NOTES (numbers refer to sequence above)
1a; Reagents were dispensed in a medium-binding black solid-bottom Greiner plates (789176F) using a BioRptr liquid dispenser. Dispense 3 uL of [4/3x] 1 uM AID (provided by Kohli lab) and [4/3x] 2 U/mL UDG (NEB M0280L) into columns 1, 2, 5 to 48.
1b; Dispense 3 uL of [4/3x] 2 U/mL UDG into column 3.
1c; Dispense 3 uL of [4/3x] 1 uM AID into column 4.
2a; Compound (7-points [uM] (0.64; 3.2; 16; 80; 400; 2,000; 10,000; 20,000) double pin-transferred (Dip Factor = 2) using the Kalypsys (Wako USA) pintool equipped with a 1536 pinhead for a final concentration range of 7.32 nM - 114 uM.
2b; 10 mM Aurintricarboxylic Acid (Sigma A1895) (ATA, 8-point, n = 2, 1:2.5 dilution in column 2) double pin-transferred (Dip Factor = 2) using the Kalypsys (Wako USA) pintool equipped with a 1536 pinhead for a [final] range of 186 nM - 114 uM.
3; Room temperature incubation.
4; Dispense 1 uL of substrate mixture from the Kohli lab [4x] […] DJC20 and [4x] 250 nM DJC23 into columns 1 to 48 .
5; Room temperature incubation.
6; Dispense 4 uL of substrate mixture [2x] 250 mM NaOH into columns 1 to 48.
7; Centrifugation step to remove bubbles.
8; Room temperature incubation
9a; Fluorescence signal (column label AID) was read using the EnVision plate reader. […]
With `O=C(CCC1CCCCC1)N1CCN(C/C=C/c2ccccc2)CC1`, the activity change, negative = inhibition was inactive: -16.6%.
In the case of `CN(C)C1(CNC(=O)c2cccc(Cl)c2)CCCCC1`, the activity change, negative = inhibition was inactive: -0.492%.
To `CN(C)C1(CNC(=O)c2ccccc2F)CCCCC1` belongs inactive: 1.16%; to `CN(C)C1(CNC(=O)c2ccccc2[N+](=O)[O-])CCCCC1`, inactive: 39%; to `CCCCOc1ccccc1C(=O)NCC1(N(C)C)CCCCC1`, inactive: -22.8%.
Then `CN(C)C1(CNC(=O)c2cccs2)CCCCC1`, with inactive: 1.24%; and `CN(C)CCOC(=O)C(O)(c1ccccc1)C1CCCCC1` (centres undefined), with inactive: 3.14%; and `CCOc1cccc(C(=O)NCC2(N(C)C)CCCCC2)c1`, with inactive: -5.76%.
In the case of `COc1ccc(C(=O)NCC2(N(C)C)CCCCC2)cc1Cl`, the activity change, negative = inhibition was inactive: 15.2%.
To `COc1cccc(C(=O)NCC2(N3CCOCC3)CCCCC2)c1` belongs inactive: -8.06%.
To `CC(C)COc1ccc(C(=O)NCC2(N(C)C)CCCCC2)cc1` belongs inactive: -11.8%; to `Cc1cccc(C(=O)NCC2(N(C)C)CCCCC2)c1`, inactive: 17.7%; to `COc1cc(C(=O)NCC2(N(C)C)CCCCC2)cc(OC)c1OC`, inactive: 1.83%.
Then `CC(C)Oc1ccc(C(=O)NCC2(N(C)C)CCCCC2)cc1`, with inactive: -17%.
